# “And” between values parts separate entries of the source, which are not always exact repeats. Equal entries are not always repeated.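 Five compound concentrations were applied to cells in 96-well plates for 48 hours; endpoints were derived by simple linear interpolation of the resulting dose-response curve. GI50 = concentration required for 50% inhibition of growth. TGI: concentration producing complete growth inhibition.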
# Columns and labels:
# Assay in all cases: NCI-60 cell line screen, 48 h
# [1] = system: OVCAR-8 ovarian
# [2] = system: SN12C renal
# [3] = system: SNB-75 CNS
# [4] = system: HOP-92 NSCLC
# [5] = system: A498 renal
# [6] = system: U251 CNS
# [7] = system: HCT-15 colon
# [8] = system: OVCAR-4 ovarian
# [9] = system: HOP-62 NSCLC
# [10] = system: NCI-H226 lung
# [11] = system: MDA-MB-435
# [12] = system: NCI/ADR-RES ovarian
# [13] = system: ACHN renal
# [14] = system: OVCAR-5 ovarian
# [15] = system: HL-60(TB) leukemia
# [16] = system: MOLT-4 leukemia
# [17] = system: OVCAR-3 ovarian
# [18] = system: SNB-19 CNS
# [19] = system: HS 578T breast
# [20] = system: M14 melanoma
# [21] = system: HT29 colon
# [22] = system: RPMI-8226 leukemia
# [23] = system: HCT-116 colon
# [24] = system: DU-145 prostate
# [25] = system: MCF7 breast
# [26] = system: UACC-62 melanoma
# [27] = system: SF-295 CNS
# [28] = system: TK-10 renal
# [29] = system: COLO 205 colon
# [30] = system: SK-OV-3 ovarian
# [31] = system: SK-MEL-2 melanoma
# [32] = system: SW-620 colon
# [33] = system: LOX IMVI melanoma
# [34] = system: UO-31 renal
# [35] = system: BT-549 breast
# [36] = system: SK-MEL-28 melanoma
# [37] = system: MALME-3M melanoma
# [38] = system: NCI-H522 lung
# [39] = system: SF-539 CNS
# [40] = system: KM12 colon
# [41] = system: RXF 393 renal
# [42] = system: UACC-257 melanoma
# [43] = system: SK-MEL-5 melanoma
# [44] = system: IGROV1 ovarian
# [45] = system: EKVX NSCLC
# [46] = system: NCI-H322M lung
# [47] = system: CAKI-1 renal
# [48] = system: SF-268 CNS
# [49] = system: T-47D breast
# [50] = system: MDA-MB-231 breast
# [51] = system: A549 NSCLC
# [52] = system: SR leukemia
# [53] = system: PC-3 prostate
# [54] = system: HCC-2998 colon
# [55] = system: CCRF-CEM leukemia
# [56] = system: NCI-H23 lung
# [57] = system: MDA-N
# [58] = system: 786-0 renal
# [59] = system: K-562 leukemia
# [60] = system: NCI-H460 lung
compound,measurement,setting,value
C[As](C)(=O)O,GI50,[1],> 100 µM
same,GI50,[2],> 100 µM
same,GI50,[3],> 100 µM
same,GI50,[4],> 100 µM
same,GI50,[5],> 100 µM
same,GI50,[6],> 100 µM
same,GI50,[7],> 100 µM
same,GI50,[8],> 100 µM
same,TGI,[8],> 100 µM
same,GI50,[9],> 100 µM
same,GI50,[10],> 100 µM
same,TGI,[10],> 100 µM
same,GI50,[11],> 100 µM
same,GI50,[12],> 100 µM
same,GI50,[13],> 100 µM
same,GI50,[14],> 100 µM
same,TGI,[15],> 100 µM
same,GI50,[16],> 100 µM
same,GI50,[17],> 100 µM
same,GI50,[18],> 100 µM
same,GI50,[19],> 100 µM
same,GI50,[20],> 100 µM
same,GI50,[21],> 100 µM
same,GI50,[22],> 100 µM
same,GI50,[23],> 100 µM
same,GI50,[24],> 100 µM
same,GI50,[25],> 100 µM
same,GI50,[26],> 100 µM
same,GI50,[27],> 100 µM
same,GI50,[28],> 100 µM
same,GI50,[29],> 100 µM
same,GI50,[30],> 100 µM
same,GI50,[31],> 100 µM
same,GI50,[32],> 100 µM
same,GI50,[33],> 100 µM
same,GI50,[34],> 100 µM
same,GI50,[35],> 100 µM
same,GI50,[36],> 100 µM
same,GI50,[37],> 100 µM and 29.1 µM
same,GI50,[38],> 100 µM
same,GI50,[39],> 100 µM
same,GI50,[40],> 100 µM
same,GI50,[41],> 100 µM
same,GI50,[42],> 100 µM
same,GI50,[43],> 100 µM
same,GI50,[44],> 100 µM
same,GI50,[45],> 100 µM
same,GI50,[46],> 100 µM
same,GI50,[47],> 100 µM
same,GI50,[48],> 100 µM
same,GI50,[49],> 100 µM
same,GI50,[50],> 100 µM
same,GI50,[51],> 100 µM
same,GI50,[52],> 100 µM
same,GI50,[53],> 100 µM
same,GI50,[54],> 100 µM
same,TGI,[54],> 100 µM
same,GI50,[55],> 100 µM
same,TGI,[55],> 100 µM
same,GI50,[56],> 100 µM
same,GI50,[57],> 100 µM
same,GI50,[58],> 100 µM
same,GI50,[59],> 100 µM
same,GI50,[60],> 100 µM

# — PubChem BioAssay (NCI)
